Experiments:
[1] = test system: WT EGFR driven H125 xenografts; settings: mouse, in vivo
pERK = experiment: FaDu target modulation Western blot, pERK; settings: 1 h drug, EGF 50 ng/mL 15 min
pAkt = experiment: FaDu target modulation Western blot, pAkt; settings: 1 h drug, EGF 50 ng/mL 15 min
[2] = test system: WT EGFR driven H125 xenografts; experiment: H125 NSCLC xenograft, single agents and cetuximab combinations; settings: for R % response rate (ORR): evaluable tumors with PR or CR
FaDu cells = experiment: FaDu anti-proliferative assay, oxic vs anoxic 24 h exposure; type: cell-based, human; settings: 4 h anoxia of 24 h exposure

Cetuximab: clinically approved EGFR inhibitor
Day of average weight loss nadir [1]: [day 2]
concentration failing to silence pERK activity (pERK): > 10 μM
concentration failing to silence pAkt activity (pAkt): > 10 μM
PD, number of tumors (RECIST criteria) ([2]; evaluable tumors): 4
R % response rate (ORR) [2]: 17%
R % response rate (ORR) ([2]; listed as cetuximab): 17%
Mean tumor volume on day 27 ± SEM ([2]; tarloxotinib 48 mg/kg qw, cetuximab 0.25 mg/mouse q3d, afatinib 6 mg/kg qd): 874 ± 140 mm^3
anoxic IC50 higher than oxic (FaDu cells): 4 fold

— patent publication US10507210B2, “Kinase inhibitor prodrug for the treatment of cancer” (Auckland UniServices Limited, priority 2014, dated 2019)
